Measured values as given in PubChem BioAssay (EPA / NIEHS).
All entries are inconclusive by the source's own rule. Clear calls are listed elsewhere. How the source made its calls: active means hit-call score of the fitted dose curve at least 0.9, where 1 is the maximum; inconclusive means response in the unintended direction; inactive means score below 0.9.

Sequences of proteins named here, by UniProt entry; tags and fusion partners are left off. A change or cut given only in a name is not applied to a line headed by its entry.
UniProt Q14994: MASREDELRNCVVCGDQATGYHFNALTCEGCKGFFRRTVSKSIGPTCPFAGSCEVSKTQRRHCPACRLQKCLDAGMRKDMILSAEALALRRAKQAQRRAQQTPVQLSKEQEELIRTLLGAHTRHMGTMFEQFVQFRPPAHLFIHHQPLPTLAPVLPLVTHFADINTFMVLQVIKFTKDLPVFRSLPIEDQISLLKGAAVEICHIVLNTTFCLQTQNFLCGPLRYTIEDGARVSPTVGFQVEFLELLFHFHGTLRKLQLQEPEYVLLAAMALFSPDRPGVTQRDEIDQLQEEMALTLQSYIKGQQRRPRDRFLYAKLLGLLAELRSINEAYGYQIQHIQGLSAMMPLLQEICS
UniProt P03372, whole entry, looked up: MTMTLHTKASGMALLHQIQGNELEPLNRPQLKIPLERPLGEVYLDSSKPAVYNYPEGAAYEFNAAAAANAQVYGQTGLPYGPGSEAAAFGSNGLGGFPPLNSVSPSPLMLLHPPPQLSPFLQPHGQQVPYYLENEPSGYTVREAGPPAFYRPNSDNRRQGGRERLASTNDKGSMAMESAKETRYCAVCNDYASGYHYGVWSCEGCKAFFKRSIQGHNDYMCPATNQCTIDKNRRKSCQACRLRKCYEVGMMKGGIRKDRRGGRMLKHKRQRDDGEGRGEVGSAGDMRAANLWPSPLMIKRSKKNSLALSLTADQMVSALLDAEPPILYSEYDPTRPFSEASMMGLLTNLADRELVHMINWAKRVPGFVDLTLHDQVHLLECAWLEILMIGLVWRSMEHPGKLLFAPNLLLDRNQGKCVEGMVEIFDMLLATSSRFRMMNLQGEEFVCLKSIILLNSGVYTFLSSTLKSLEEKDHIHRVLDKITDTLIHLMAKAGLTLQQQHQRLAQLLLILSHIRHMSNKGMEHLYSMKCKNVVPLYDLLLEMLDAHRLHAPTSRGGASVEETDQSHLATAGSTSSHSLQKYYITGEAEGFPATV
UniProt P62508: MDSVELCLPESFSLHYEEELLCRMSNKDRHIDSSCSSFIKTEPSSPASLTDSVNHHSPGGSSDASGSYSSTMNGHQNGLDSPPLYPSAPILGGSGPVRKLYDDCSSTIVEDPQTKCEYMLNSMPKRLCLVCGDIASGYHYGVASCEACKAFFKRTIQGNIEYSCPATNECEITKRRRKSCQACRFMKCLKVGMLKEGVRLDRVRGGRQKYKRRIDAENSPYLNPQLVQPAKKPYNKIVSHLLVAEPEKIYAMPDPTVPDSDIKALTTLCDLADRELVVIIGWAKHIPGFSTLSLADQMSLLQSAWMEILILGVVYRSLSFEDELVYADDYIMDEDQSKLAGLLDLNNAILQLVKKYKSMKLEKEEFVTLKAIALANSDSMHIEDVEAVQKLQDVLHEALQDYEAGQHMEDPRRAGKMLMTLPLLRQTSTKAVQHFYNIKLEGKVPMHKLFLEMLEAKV
UniProt Q03181: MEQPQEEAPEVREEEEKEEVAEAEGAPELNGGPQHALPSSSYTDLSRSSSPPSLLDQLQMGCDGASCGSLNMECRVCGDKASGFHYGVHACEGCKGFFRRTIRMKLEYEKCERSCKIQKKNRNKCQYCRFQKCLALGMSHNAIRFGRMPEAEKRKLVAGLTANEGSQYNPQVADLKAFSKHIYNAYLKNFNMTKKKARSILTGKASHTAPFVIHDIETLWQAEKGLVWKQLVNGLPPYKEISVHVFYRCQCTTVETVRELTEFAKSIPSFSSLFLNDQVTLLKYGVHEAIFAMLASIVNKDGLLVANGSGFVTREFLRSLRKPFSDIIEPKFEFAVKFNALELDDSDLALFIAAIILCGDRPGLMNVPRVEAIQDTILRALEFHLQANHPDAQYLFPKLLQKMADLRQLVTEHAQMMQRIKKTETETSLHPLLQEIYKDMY
UniProt P10826, whole entry, looked up: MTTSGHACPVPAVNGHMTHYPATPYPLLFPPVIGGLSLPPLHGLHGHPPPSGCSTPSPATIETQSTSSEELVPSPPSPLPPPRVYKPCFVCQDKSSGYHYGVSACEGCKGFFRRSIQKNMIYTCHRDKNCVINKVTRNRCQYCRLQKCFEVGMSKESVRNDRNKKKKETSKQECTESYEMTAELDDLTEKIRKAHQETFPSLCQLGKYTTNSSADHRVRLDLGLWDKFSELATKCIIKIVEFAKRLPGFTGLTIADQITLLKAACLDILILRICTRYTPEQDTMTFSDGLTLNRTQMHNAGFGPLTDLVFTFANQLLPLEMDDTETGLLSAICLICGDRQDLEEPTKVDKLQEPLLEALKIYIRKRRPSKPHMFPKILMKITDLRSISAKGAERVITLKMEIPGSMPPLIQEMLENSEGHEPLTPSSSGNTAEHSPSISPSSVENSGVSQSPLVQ
UniProt P13631, whole entry, looked up: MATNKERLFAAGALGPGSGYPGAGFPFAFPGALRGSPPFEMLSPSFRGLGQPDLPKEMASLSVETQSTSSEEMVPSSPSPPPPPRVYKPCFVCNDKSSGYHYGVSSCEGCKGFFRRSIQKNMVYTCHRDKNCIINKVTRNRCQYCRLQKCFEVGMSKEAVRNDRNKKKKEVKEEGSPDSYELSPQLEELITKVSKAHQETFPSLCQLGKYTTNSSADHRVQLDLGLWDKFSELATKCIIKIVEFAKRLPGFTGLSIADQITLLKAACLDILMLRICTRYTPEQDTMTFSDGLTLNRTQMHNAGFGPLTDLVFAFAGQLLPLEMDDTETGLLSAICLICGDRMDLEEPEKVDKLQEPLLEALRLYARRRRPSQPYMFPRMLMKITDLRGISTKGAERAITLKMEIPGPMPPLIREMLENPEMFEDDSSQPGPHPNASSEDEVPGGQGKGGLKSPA
UniProt P51449: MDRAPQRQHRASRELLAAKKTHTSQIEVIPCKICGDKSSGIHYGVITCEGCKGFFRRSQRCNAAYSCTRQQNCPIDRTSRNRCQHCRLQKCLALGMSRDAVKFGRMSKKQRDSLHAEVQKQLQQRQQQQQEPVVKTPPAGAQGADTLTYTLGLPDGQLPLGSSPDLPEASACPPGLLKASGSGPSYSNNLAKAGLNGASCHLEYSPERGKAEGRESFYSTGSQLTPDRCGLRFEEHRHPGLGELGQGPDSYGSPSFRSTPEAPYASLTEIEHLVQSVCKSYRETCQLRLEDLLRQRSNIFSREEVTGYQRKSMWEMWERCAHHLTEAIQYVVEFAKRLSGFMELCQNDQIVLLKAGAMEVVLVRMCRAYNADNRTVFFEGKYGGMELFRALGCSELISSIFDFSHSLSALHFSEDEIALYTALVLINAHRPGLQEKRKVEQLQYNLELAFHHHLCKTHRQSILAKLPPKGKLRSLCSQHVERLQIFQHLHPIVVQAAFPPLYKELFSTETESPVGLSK
UniProt P19793: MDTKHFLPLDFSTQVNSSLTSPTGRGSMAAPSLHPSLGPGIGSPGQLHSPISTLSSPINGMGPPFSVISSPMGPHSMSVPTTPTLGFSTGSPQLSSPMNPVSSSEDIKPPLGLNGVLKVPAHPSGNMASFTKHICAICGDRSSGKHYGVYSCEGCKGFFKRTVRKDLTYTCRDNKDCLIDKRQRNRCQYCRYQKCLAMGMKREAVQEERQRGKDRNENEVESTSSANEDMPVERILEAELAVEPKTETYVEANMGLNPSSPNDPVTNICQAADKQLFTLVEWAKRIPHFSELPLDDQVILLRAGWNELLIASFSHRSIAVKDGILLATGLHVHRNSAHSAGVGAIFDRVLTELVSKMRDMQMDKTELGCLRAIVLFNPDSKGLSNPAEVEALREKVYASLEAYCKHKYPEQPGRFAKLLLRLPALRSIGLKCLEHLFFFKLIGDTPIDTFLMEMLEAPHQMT
UniProt P04150: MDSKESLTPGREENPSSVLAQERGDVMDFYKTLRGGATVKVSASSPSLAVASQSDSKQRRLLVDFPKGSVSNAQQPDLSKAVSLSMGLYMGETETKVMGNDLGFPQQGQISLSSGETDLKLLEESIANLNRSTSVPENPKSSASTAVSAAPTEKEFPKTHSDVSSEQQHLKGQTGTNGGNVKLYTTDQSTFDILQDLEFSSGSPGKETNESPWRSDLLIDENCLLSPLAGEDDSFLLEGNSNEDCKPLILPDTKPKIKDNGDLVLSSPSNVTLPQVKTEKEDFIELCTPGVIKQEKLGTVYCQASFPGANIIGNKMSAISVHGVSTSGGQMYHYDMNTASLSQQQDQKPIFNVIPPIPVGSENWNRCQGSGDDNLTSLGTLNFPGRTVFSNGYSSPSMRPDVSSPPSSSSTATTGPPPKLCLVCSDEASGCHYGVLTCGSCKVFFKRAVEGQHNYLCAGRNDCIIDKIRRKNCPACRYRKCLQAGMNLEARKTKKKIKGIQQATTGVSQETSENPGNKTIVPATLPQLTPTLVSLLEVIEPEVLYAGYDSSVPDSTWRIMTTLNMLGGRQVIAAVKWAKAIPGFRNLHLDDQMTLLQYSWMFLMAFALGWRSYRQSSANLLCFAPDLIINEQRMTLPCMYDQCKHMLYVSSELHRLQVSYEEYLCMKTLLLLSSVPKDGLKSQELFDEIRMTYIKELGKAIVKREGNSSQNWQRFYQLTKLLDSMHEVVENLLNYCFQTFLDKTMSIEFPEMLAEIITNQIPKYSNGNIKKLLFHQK
UniProt P55055, whole entry, looked up: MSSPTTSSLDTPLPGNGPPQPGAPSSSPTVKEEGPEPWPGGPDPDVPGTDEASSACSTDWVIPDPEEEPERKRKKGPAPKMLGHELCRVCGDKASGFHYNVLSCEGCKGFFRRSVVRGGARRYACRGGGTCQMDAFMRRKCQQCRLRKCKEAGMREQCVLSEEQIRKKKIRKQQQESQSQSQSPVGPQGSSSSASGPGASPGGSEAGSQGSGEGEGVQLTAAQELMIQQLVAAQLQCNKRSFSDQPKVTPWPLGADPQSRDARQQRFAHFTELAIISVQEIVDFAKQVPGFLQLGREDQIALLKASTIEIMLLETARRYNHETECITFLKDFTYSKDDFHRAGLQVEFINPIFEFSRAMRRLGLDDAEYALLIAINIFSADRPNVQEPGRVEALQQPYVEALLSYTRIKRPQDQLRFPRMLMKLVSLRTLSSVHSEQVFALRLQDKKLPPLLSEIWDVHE
UniProt Q07869: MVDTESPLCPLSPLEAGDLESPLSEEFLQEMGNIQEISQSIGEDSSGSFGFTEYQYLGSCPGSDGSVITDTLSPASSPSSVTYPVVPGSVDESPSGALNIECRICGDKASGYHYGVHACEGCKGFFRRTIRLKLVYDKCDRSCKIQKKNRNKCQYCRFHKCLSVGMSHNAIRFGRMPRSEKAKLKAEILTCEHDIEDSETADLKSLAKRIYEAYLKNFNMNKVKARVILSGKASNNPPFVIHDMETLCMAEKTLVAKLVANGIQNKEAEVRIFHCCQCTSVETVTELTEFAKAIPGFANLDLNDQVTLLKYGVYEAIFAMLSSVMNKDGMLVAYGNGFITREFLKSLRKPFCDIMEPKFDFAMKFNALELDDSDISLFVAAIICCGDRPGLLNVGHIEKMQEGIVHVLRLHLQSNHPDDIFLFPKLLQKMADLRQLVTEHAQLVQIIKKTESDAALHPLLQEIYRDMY
UniProt P11473: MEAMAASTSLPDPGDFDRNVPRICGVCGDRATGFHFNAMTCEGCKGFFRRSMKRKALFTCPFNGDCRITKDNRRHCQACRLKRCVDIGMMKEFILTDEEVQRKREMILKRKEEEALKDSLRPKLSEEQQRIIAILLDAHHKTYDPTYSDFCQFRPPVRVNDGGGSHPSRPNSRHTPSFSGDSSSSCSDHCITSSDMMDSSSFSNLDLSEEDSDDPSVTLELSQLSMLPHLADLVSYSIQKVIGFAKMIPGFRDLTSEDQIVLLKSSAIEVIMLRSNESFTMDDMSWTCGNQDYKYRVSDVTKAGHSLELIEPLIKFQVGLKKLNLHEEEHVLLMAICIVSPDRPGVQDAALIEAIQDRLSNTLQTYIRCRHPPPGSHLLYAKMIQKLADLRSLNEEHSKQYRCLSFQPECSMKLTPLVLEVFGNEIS
UniProt P60484: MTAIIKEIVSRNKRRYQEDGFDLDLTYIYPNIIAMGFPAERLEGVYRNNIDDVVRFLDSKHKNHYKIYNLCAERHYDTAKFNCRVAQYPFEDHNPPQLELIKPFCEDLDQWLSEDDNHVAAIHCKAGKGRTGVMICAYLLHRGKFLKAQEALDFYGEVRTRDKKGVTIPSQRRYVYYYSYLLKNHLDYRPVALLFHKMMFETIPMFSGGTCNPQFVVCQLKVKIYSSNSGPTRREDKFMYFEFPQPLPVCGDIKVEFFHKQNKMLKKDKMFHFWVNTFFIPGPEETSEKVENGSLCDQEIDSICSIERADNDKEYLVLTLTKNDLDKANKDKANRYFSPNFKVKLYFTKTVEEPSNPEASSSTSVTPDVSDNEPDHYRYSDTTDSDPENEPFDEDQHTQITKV

Assays:
[1] = molecular target: Nuclear receptor subfamily 1 group I member 3 (Homo sapiens) (UniProt Q14994); assay: ATG_CAR_TRANS: Attagene TRANS-FACTORIAL HepG2 Assay for human Constitutive Androstane Receptor (CAR) (AID 2282969); settings: HepG2 Attagene TRANS-FACTORIAL CAR reporter;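 further: activators raise reporter mRNA above DMSO so AC50 marks induction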
How it was run: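 Transiently transfected HepG2, multiplex TRANS reporters (CAR-Gal4 chimera driving GAL4-UAS reporter). 24 h dosing. Readout: reporter transcript by RT-PCR + capillary electrophoresis, fluorescence intensity; positive direction vs DMSO.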

[2] = molecular target: Estrogen receptor (Homo sapiens) (UniProt P03372); assay: ATG_ERa_TRANS: Attagene TRANS-FACTORIAL HepG2 Assay for human Estrogen Receptor alpha (ERa) (AID 2282970); settings: HepG2 Attagene TRANS ERa GAL4 reporter, mRNA
How it was run: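 Gal4-fusion ERa transactivation, measured as reporter transcript level in transiently transfected HepG2 cells. Exposure 24 h; RT-PCR plus capillary electrophoresis with fluorescence detection.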

[3] = molecular target: Estrogen-related receptor gamma (Homo sapiens) (UniProt P62508); assay: ATG_ERRg_TRANS: Attagene TRANS-FACTORIAL HepG2 Assay for human Estrogen-Related Receptor gamma (ERRg) (AID 2282977); settings: HepG2 Attagene TRANS reporter, ERRg transactivation;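 further: hits increase reporter signal over DMSO so potencies reflect activators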
How it was run: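 Readout: fluorescent reporter-mRNA fragments resolved by capillary electrophoresis after RT-PCR and HpaI cut. Cells: transiently transfected HepG2 carrying GAL4-UAS reporters driven by exogenous NR-Gal4 chimeras, dosed 24 h. Activity fitted upward relative to DMSO baseline.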

[4] = ATG_M_06_TRANS: Attagene TRANS-FACTORIAL HepG2 Assay for M06 Transcription Factor (Internal Marker) (AID 2282983); settings: HepG2 Attagene TRANS M06 internal marker reporter;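 further: potency for rise in reporter mRNA above DMSO baseline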
How it was run: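 mRNA levels of a reporter transcript, quantified as FAM fluorescence on capillary electrophoresis, served as readout. HepG2 cells expressing exogenous GAL4-chimera reporter constructs were exposed for 24 h. Gain of signal over DMSO was evaluated.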

[5] = molecular target: human Peroxisome Proliferator-activated Receptor delta (PPARd), PPARD (gene 5467) (UniProt Q03181); assay: ATG_PPARd_TRANS: Attagene TRANS-FACTORIAL HepG2 Assay for human Peroxisome Proliferator-activated Receptor delta (PPARd) (AID 2283002)
How it was run: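 Fluorescence from capillary electrophoresis of labelled RT-PCR reporter fragments gives the signal; DMSO sets baseline. Cells: HepG2 transiently carrying GAL4-UAS reporter units plus chimeric nuclear receptor-Gal4 proteins, exposed to chemicals for 24 h.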

[6] = molecular target: human Retinoic Acid Receptor beta (RARb), RARB (gene 5915) (UniProt P10826); assay: ATG_RARb_TRANS: Attagene TRANS-FACTORIAL HepG2 Assay for human Retinoic Acid Receptor beta (AID 2283004)
How it was run: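 HepG2 cells were transiently transfected with GAL4-UAS reporter units that report activity of exogenous chimeric NR-Gal4 proteins, then exposed to compound for 24 h. Reporter mRNA was quantified by RT-PCR with capillary electrophoresis fluorescence, as gain of signal over DMSO.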

[7] = molecular target: human Retinoic Acid Receptor gamma (RARg), RARG (gene 5916) (UniProt P13631); assay: ATG_RARg_TRANS: Attagene TRANS-FACTORIAL HepG2 Assay for human Retinoic Acid Receptor gamma (RARg) (AID 2283009);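 further: AC50 is for reporter induction above DMSO meaning RARg activation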
How it was run: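 Readout: reporter transcript levels via RT-PCR, 6-FAM primer-extension labelling, HpaI digestion and capillary electrophoresis. Cells: HepG2 carrying transfected RARg-GAL4 chimera plus UAS reporter set. Dosing 24 h; DMSO negative control.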

[8] = molecular target: human RAR-related Orphan Receptor gamma (RORg), RORC (gene 6097) (UniProt P51449); assay: ATG_RORg_TRANS: Attagene TRANS-FACTORIAL HepG2 Assay for human RAR-related Orphan Receptor gamma (RORg) (AID 2283011);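 further: potency for induction of reporter transcripts above DMSO so activators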
How it was run: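 HepG2 cells transiently transfected with GAL4-UAS reporter units and chimeric RORg-Gal4 construct; after 24 h chemical exposure, reporter mRNA measured by RT-PCR with fluorescent capillary electrophoresis, gain of signal fitted against DMSO.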

[9] = molecular target: Retinoic acid receptor RXR-alpha (Homo sapiens) (UniProt P19793); assay: ATG_RXRa_TRANS: Attagene TRANS-FACTORIAL HepG2 Assay for human Retinoid X Receptor alpha (RXRa) (AID 2283012)
How it was run: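 Read-out: fluorescent reporter-transcript fragments quantified by capillary electrophoresis after RT-PCR. Transiently transfected HepG2 cells carrying GAL4-UAS reporters and NR-GAL4 chimeras were exposed to chemical for 24 h; activity scored as increase over DMSO.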

[10] = molecular target: human Retinoid X Receptor beta (RXRb), RXRB (gene 6257) (UniProt P28702); assay: ATG_RXRb_TRANS: Attagene TRANS-FACTORIAL HepG2 Assay for human Retinoid X Receptor beta (RXRb) (AID 2283013)
How it was run: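 Read-out: reporter mRNA induction via RT-PCR plus capillary electrophoresis fluorescence, analysed as signal increase relative to DMSO. Cells were human HepG2, transiently transfected with GAL4-UAS reporter constructs and chimeric receptor-Gal4 fusions, dosed for 24 h.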

[11] = ATG_XTT_Cytotoxicity: Cytotoxicity Assessment in the Attagene TRANS-FACTORIAL HepG2 Assay (AID 2283584);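 further: XTT signal for cell number as viability in transfected HepG2 cells; cells exposed to compound for 24 h before reading; active means loss of viability signal versus DMSO baseline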
How it was run: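 HepG2 cells transiently transfected with GAL4-UAS multiple reporter units, dosed 24 h; cytotoxicity read by XTT as loss of signal versus DMSO baseline.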

[12] = molecular target: Glucocorticoid receptor (Homo sapiens) (UniProt P04150); assay: ATG_GR_TRANS: Attagene TRANS-FACTORIAL HepG2 Assay for human Glucocorticoid Receptor (GR) (AID 2282978); settings: HepG2 Attagene TRANS GR reporter, mRNA transcription;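 further: activators score as hits since higher reporter transcript over DMSO is fitted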
[13] = molecular target: Oxysterols receptor LXR-beta (Homo sapiens) (UniProt P55055); assay: ATG_LXRb_TRANS: Attagene TRANS-FACTORIAL HepG2 Assay for human Liver X Receptor beta (LXRb) (AID 2282981); settings: HepG2 Attagene TRANS GAL4-LXRb reporter, mRNA
How it was run: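 Readout: fluorescent reporter mRNA fragments resolved by capillary electrophoresis after RT-PCR. System: transiently transfected human HepG2, exogenous LXRb-Gal4 chimera driving GAL4-UAS reporter, 24 h dosing. Activity fitted upward against DMSO baseline.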

[14] = ATG_M_32_TRANS: Attagene TRANS-FACTORIAL HepG2 Assay for M32 Transcription Factor (Internal Marker) (AID 2282984); settings: HepG2 Attagene TRANS M32 internal marker reporter
How it was run: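 Read-out: fluorescent reporter cDNA fragments resolved by capillary electrophoresis after RT-PCR of total RNA. Transfected HepG2 cells were exposed to chemical for 24 h. Activity scored in the positive direction relative to DMSO.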

[15] = molecular target: human Peroxisome Proliferator-activated Receptor alpha (PPARa), PPARA (gene 5465) (UniProt Q07869); assay: ATG_PPARa_TRANS: Attagene TRANS-FACTORIAL HepG2 Assay for human Peroxisome Proliferator-activated Receptor alpha (PPARa) (AID 2283001);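 further: potency for gain of reporter signal over DMSO so agonist or activator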
How it was run: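 Transient HepG2 transfection, GAL4-UAS reporters, NR-Gal4 chimeras; 24 h compound exposure. Readout: reporter transcripts by RT-PCR, 6-FAM primer extension, HpaI digest, capillary electrophoresis. Positive direction vs DMSO baseline.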

[16] = molecular target: human Vitamin D Receptor (VDR), VDR (gene 7421) (UniProt P11473); assay: ATG_VDR_TRANS: Attagene TRANS-FACTORIAL HepG2 Assay for human Vitamin D Receptor (VDR) (AID 2283022)
How it was run: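 HepG2 cells were transiently transfected with GAL4-UAS reporter units and a chimeric VDR-Gal4 construct, then dosed for 24 hours. Reporter mRNA was quantified by RT-PCR, fluorescent labeling, HpaI digestion and capillary electrophoresis; gain of signal analysed vs DMSO.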

[17] = molecular target: human Phosphatase and Tensin Homolog (PTEN), PTEN (gene 5728) (UniProt P60484); assay: NVS_ENZ_hPTEN: NovaScreen (NVS) Enzymatic Assay for human Phosphatase and Tensin Homolog (PTEN) (AID 2283203)
How it was run: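 Loss of fluorescent product signal after mobility-shift separation reports PTEN activity, recombinant human enzyme, 1 h after compound addition. Single 25 uM duplicate screen, then concentration-response on actives; DMSO baseline.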

Measured: AC50

O=[p+]1oc2ccccc2c2ccccc21 (stereo not drawn)
inconclusive: [1] 100 µM | [2] 182 µM | [3] 100 µM | [4] 100 µM | [5] 100 µM | [6] 184 µM | [7] 0.979 µM | [8] 100 µM | [9] 100 µM | [10] 49.8 µM | [11] 100 µM

CCCCOP(OCCCC)OCCCC
inconclusive: [12] 100 µM | [13] 5.26 µM | [4] 100 µM | [14] 100 µM | [15] 0.624 µM | [16] 100 µM | [17] 6.61 µM
